The species named for one series is Homo sapiens. The experiment in a line: Protein binding in human plasma. The following applies: read-out: PPB.
Series [1] is described as follows: Protein binding in human serum. Type of series: ADME, organism-based. The following applies: read-out: PPB.
Another series deals with Caco-2. Nature of the series: Ratio of permeability from apical to basolateral over basolateral to apical side of Caco-2 cells. Type of series: ADME, cell-based. As to conditions: human. A general note: Passage across Caco-2 layers is used to estimate intestinal permeability.

For the compound `O=C(c1ccc(Cl)cc1NS(=O)(=O)c1cccc2nsnc12)N1CCCCC1`, the fraction unbound (in the series listed under Homo sapiens; in series [1]) was below 0.005 each time. The Ratio in the series on Caco-2 was determined as 0.8.

The values are drawn from ChEMBL document CHEMBL1137407, “Identification and optimization of anthranilic sulfonamides as novel, selective cholecystokinin-2 receptor antagonists” (J Med Chem, 2006).
